# Source: patent US20200345021A1, “METHOD AND SYSTEM FOR ENHANCING THE EFFICACY USING IONIZED/A[…] PEROXIDE IN REDUCING MICROBIAL POPULATIONS, METHOD OF USE THEREOF” (priority 2019, published 2020)
# System: S. Typhimurium
# Conditions: with cold plasma
compound,measurement,setting,value
"OO [H2O2, hydrogen peroxide]",Reductions of S. Typhimurium,"Granny Smith apple skins, treatment time 8 s + 30 min dwell, listed as ionized hydrogen peroxide",5.18 ± 0.19^a log CFU/piece
same,Reductions of S. Typhimurium,"Granny Smith apple skins, treatment time 10 s + 30 min dwell",4.86 ± 0.58^a log CFU/piece
same,Reductions of S. Typhimurium,"grape tomato surfaces, treatment time 8 s + 30 min dwell, listed as ionized hydrogen peroxide",5.21 ± 0.49^a log CFU/piece

# Where two headings read alike, the source gives them in different places. Marks after values point to notes of the source that are not given here.
